System: Gammarus pulex
Test: Biotransformation products in G. pulex after exposure to propranolol, carbamazepine or diazepam (LC-MS/MS)
Conditions: diazepam exposure

O=C1Nc2ccc(Cl)cc2C(c2ccccc2)=NC1O (stereo not shown) [oxazepam]
first detection of biotransformation product: not detectable until 48 h

Reference: PMC5476196, “Uptake, biotransformation and elimination of selected pharmaceuticals in a freshwater invertebrate measured using liquid chromatography tandem mass spectrometry” (Chemosphere, 2017)
